# Data published in patent US10842892B2, “Methods and apparatus for synthesizing imaging agents, and intermediates thereof” (Lantheus Medical Imaging, Inc., priority 2010, dated 2020).
# System: viable left ventricle
# Assay: left ventricular viability after myocardial infarction, imaging agent 1 versus FDG
# Settings: rat, in vivo
# Experimental: MI was induced in rats by 30 minutes of\ coronary occlusion followed reperfusion. Imaging agent 1 (1 mCi) and FDG (1 mCi) cardiac imaging in 2 days apart was performed in rats of before, two days (early MI) and four weeks (late MI) post surgery. A regimen of glucose and insulin was injected before FDG imaging to ensure high cardiac uptake. Viable left ventricle was quantified in images as the volume with ≥50% of maximum activity.
substance,measurement,value
"^18F fluorodeoxyglucose [FDG, reference compound]",left ventricular volume,1.11±0.07 cm3
same,viable left ventricular tissue volume,0.75±0.04 cm3 and 0.99±0.09 cm3

# “And” between values parts separate entries of the source, which are not always exact repeats. Equal entries are not always repeated.
